Test results reported in patent US20250127937A1, “FAP INHIBITOR” (UNIVERSITÄT HEIDELBERG, priority 2018, published 2025).

Sequences of proteins named here, by UniProt entry; tags and fusion partners are left off.
UniProt Q12884, whole entry: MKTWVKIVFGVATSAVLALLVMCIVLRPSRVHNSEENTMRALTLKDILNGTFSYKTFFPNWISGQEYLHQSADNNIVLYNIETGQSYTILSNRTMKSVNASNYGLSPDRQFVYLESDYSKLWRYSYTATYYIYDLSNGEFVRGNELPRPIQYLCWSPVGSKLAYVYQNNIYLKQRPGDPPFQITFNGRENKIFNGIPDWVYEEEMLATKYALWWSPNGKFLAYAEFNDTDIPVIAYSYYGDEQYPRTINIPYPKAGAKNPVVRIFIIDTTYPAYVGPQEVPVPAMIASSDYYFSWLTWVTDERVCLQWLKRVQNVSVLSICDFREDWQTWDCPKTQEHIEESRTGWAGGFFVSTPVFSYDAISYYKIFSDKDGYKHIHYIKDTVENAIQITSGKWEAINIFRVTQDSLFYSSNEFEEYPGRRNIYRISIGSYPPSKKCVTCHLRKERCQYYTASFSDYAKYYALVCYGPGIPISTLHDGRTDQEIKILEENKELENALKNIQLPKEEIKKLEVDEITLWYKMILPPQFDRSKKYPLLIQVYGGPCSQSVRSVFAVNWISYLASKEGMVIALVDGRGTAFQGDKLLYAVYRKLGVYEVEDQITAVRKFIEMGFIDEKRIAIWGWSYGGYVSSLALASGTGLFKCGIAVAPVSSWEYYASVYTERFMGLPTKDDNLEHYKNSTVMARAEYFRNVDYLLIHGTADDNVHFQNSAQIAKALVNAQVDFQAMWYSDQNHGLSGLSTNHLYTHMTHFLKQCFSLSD

Tests used:
human FAP-α = human FAP-α (Homo sapiens (Human), UniProt Q12884); assay: Competitive binding of radiolabeled compound to HT-1080-FAP cells against unlabeled compound; settings: F-18-FAPI derivatives; table title says EC50, head says IC50
[1] = tested on: HT-1080-FAP tumor xenografts; assay: Small-animal imaging (PET, scintigraphy) in HT-1080-FAP tumor bearing mice; settings: F-18 labeled (nicotinamide or AlF-18 NOTA), up to 140 min after i.v.

| Compound | IC50 (human FAP-α) [nM] | PET imaging findings [1] |
| --- | --- | --- |
| CN(CCCN1CCN(C(=O)c2ccc([N+](C)(C)C)nc2)CC1)c1ccc2nccc(C(=O)NCC(=O)N3CC(F)(F)C[C@H]3C#N)c2c1 | 2.4 | unfavorable accumulation in the liver |
| C[N+](C)(C)c1ccc(C(=O)N2CCN(CCCOc3ccc4nccc(C(=O)NCC(=O)N5CC(F)(F)C[C@H]5C#N)c4c3)CC2)cn1 | 5.4 | unfavorable accumulation in the liver |
